Experimental data reported in patent US20070154546A1, “Sustained release pharmaceutical compositions” (priority 2005, published 2007).

How the values were obtained:
[1] = 150 mg, IM administration; cited from earlier work
[2] = background statement; cited from earlier work
[3] = In vitro solubility in human serum; settings: calculated as montelukast sodium; HPLC method

Solubility in human serum [3]	Substance	Duration of slow dissolution and release [1]	Solubility in human serum [2]
	medroxyprogesterone	up to three months	42 µg/mL
2800 µg/mL	montelukast lauro-cholinium [Example 11]		
1600 µg/mL	montelukast palmito-cholinium [Example 12]		

Substance	Solubility in human serum [3]	Duration of slow dissolution and release [1]	Solubility in human serum [2]
montelukast cetyl-pyridinium [Example 13]	1100 µg/mL		

Where two headings read alike, the source gives them in different places.
